Test results as given in patent EP1935887A1, “Heterocyclic substituted carbonyl derivatives and their use as dopamine D3 receptor ligands” (Aventis Pharmaceuticals Inc., priority 2001, dated 2002).
pKi: −log10 of the molar value.

By UniProt entry, the sequences of proteins in these tests, tags left out.
UniProt P35462, whole entry: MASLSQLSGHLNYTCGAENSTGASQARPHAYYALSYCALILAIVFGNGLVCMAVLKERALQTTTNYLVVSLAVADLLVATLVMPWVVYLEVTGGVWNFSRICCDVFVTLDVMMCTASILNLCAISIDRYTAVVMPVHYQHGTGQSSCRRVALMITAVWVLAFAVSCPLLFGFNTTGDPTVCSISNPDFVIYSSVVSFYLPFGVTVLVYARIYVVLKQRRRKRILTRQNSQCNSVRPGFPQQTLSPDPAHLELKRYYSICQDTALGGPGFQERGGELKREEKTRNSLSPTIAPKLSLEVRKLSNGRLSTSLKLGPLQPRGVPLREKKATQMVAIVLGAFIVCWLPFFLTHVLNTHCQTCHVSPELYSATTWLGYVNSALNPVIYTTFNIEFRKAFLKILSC

Biological target: Cloned Human Dopamine D3 Receptors (Homo sapiens, UniProt P35462)
Experiment: [N-Methyl-3H]Spiroperidol binding to cloned human dopamine D3 receptors
Settings: read-out: D3 Ki
From the text: [N-Methyl-^3H]Spiroperidol Binding to Cloned Human Dopamine D3 Receptors
This assay measures the in vitro activity of compounds on cloned human dopamine (D3) receptors and predicts the direct dopamine-blocking properties of putative neuropsychiatric agents at human dopamine D3 receptors.
The D3 gene was isolated from a human striatal cDNA library (Stratagene). The gene was sequenced and sub-cloned into the expression vector RC/RSV (Invitrogen). CHO (Chinese Hamster Ovary) cells were stably transfected with 10 µg of the D3/RSV plasmid using the DOTAP method from Boehringer Mannheim and 72 clones that were G418 resistant were isolated. Using mRNA and binding displacement data a single high expressing clone was identified. This clone was then grown in large batches for the purpose of developing a 96 well format assay.
• 1. One plate (10 cm) with approximately 2-3 million D3 cells per plate is incubated with 1 ml of Trypsin-EDTA at room temperature for -2 min or until cells have lifted off plates. Four ml of Ham's F12 + 10% Fetal Bovine Serum + 1% Penicillin/Streptomycin + G418 (400 µg/ml) medium are added to resuspend cells and 1 ml of this is added to each large plate (15 cm) containing 19 ml of the same medium as mentioned above. • 2. The 5 large plates are incubated at 37°C + 5% CO2 for - 3 days or until the cells are confluent. • 3. After these plates are confluent, they are split into 10 large plates. Medium is aspirated off, 2 ml of Trypsin-EDTA are added to each plate and plates are incubated at RT for 2 min or until cells have lifted off the plate. Eight ml of the F12 medium (same medium as #1 above) are added to each plate (10 ml total) to resuspend the cells and 5 ml are transferred to the 2 new plates containing 15 ml of the F12 media. • 4. The 10 large plates are incubated at 37°C + 5% CO2 for ∼ 2 days or until the cells are confluent. • 5. The 10 large plates are split into 60 large plates (using Trypsin-EDTA as #3 except 4 ml of F12 medium are added to resuspend cells and 1 ml is aliquoted to 6 new plates containing 19 ml of F12 medium each). • 6. Plates are incubated at 37°C + 5% CO2 for - 3 days or until cell are confluent. • 7. The 60 large plates are then split into 60 roller bottles (100-150 million cells/bottle). Medium is aspirated off , 2 ml of Trypsin-EDTA are added to each plate and incubated at RT for -2 minutes or until cells have lifted off plates. Eight ml of F12 medium are added to each plate to resuspend cells and the entire 10 ml are added to 1 roller bottle containing 90 ml of the F12 medium. • 8. The 60 roller bottles are immediately placed on their sides and transferred to the roller bottle incubator. They are incubated at 37°C + 5% CO2 for ~ 3-5 days. Cells are spun at 30-40% motor speed in the Forma incubator. • 9. Medium is poured off and cells are washed 2X in PBS. • 10. Cells are then scraped off in 20 ml of PBS and the bottles are rinsed again with 5 ml of PBS to remove any remaining cells. Cells are stored on ice before membrane prepration. • 11. The yield for 60 D3 roller bottles has varied from - 260-500 mg. Note: All tissue culture reagents are from Gibco-BRL.
The cells are harvested into 250 ml centrifuge tubes with 100 volumes of cold phosphate buffered saline (PBS) and spun down (1200xG for 10 min at 4°C). The medium is removed and 100 ml PBS are added to each centrifuge tube, cells are resuspened and spun down again. The PBS is removed and the final pellet is homogenized in an appropriate volume of 10% DMSO with a polytron on ice at a medium setting.
A 200 µl sample membrane homogenate is added to 200 µl of 1% SDS, vortexed and allowed to stand for 5 min. Aliquots (25, 50 and 100 µl) of this mixture are assayed in duplicate following the standard Bio-Rad DC protein assay protocol (kit catalog number 500-0112) and using reagent S. Absorbance readings are made at 750 nm (note: the most accurate protein OD readings are between 0.1-0.5 units). […]

pKi	SMILES
7.91	CC[C@H]1CC[C@H](NC(=O)[C@@H]2C[C@H]2CN2CCN(c3csc4cc(C(F)(F)F)ccc34)CC2)CC1
8.01	Cc1csc2c(C3CCN(C[C@@H]4C[C@H]4C(=O)NCCCn4ccnc4)CC3)noc12
8.24	O=C(NC1CCN(CC2CCCCC2)CC1)[C@@H]1C[C@H]1CN1CCN(c2csc3cc(C(F)(F)F)ccc23)CC1

Same assay, conditions: read-out: d3Ki

pKi	SMILES
8.68	CC[C@H]1CC[C@H](NC(=O)[C@@H]2C[C@H]2CN2CCN(c3ncccc3C(F)(F)F)CC2)CC1 (relative stereo)
7.04	CC[C@H]1CC[C@H](NC(=O)[C@@H]2C[C@H]2CN2CCN(c3c(C)cccc3C)CC2)CC1 (relative stereo)
7.82	C[C@H]1CC[C@H](NC(=O)[C@@H]2C[C@H]2CN2CCCN(c3csc4cc(C(F)(F)F)ccc34)CC2)CC1 (relative stereo)
6.88	COc1ccc(CNC(=O)[C@@H]2CCCC[C@@H]2CN2CCN(c3csc4cc(C(F)(F)F)ccc34)CC2)c(OC)c1 (relative stereo)

Same assay, conditions: read-out: d3Ki; Table 2; unit inferred

pKi	SMILES
7.00	CC1[C@@H](CN2CCN(c3csc4cc(C(F)(F)F)ccc34)CC2)[C@@H]1C(=O)NC1CC1 (relative stereo)
8.24	CC[C@H]1CC[C@H](NC(=O)[C@@H]2C[C@H]2CN2CCN(c3ccccc3C)CC2)CC1
8.06	CC[C@H]1CC[C@H](NC(=O)[C@@H]2C[C@H]2CN2CCN(c3cccc4cccnc34)CC2)CC1 (relative stereo)
6.90	CC[C@H]1CC[C@H](NC(=O)[C@H]2C[C@@H]2CN2CCN(c3noc4ccsc34)CC2)CC1

Further lines, the compound ahead of its results:

SMILES	pKi
CN(C(=O)CCCN1CCCN(c2csc3cc(F)ccc23)CC1)C1CCCCC1	7.84
C[C@H]1CC[C@H](NC(=O)[C@@H]2C[C@H]2CN2CCN(c3noc4ccsc34)CC2)CC1	8.26
C[C@H]1CC[C@H](NC(=O)CCCN2CCN(c3csc4cc(F)ccc34)CC2Cc2ccccc2)CC1 (stereo partly shown)	6.90
C[C@@]1(C(=O)NC2CCCCC2)C[C@H]1CN1CCN(c2csc3cc(C(F)(F)F)ccc23)CC1 (relative stereo)	6.85
O=C(CCCN1CCCN(c2csc3cc(F)ccc23)CC1)NC1CCCC1 [compound 826840]	7.66

Same assay, conditions: read-out: d3Ki; Table 2; unit inferred; tested form: HCl

pKi	SMILES
7.74	CN(C(=O)CCCCN1CCN(c2csc3cc(F)ccc23)CC1)c1ccc(F)cc1

Same assay, conditions: read-out: d3Ki; Table 2 part the 10th table

pKi	SMILES
6.61	CC1CCCCN1C(=O)CCCN1CCN(c2csc3cc(C(F)(F)F)ccc23)CC1Cc1ccccc1 (stereo not shown)
8.44	O=C([C@@H]1C[C@H]1CN1CCCN(c2csc3cc(F)ccc23)CC1)N1CCC(O)CC1 (relative stereo)
7.89	CC1[C@@H](CN2CCN(c3csc4cc(C(F)(F)F)ccc34)CC2)[C@@H]1C(=O)N1CCCCC1 (relative stereo)
9.09	CC1(C)CCCN(C(=O)CCCN2CCN(c3csc4cc(F)ccc34)CC2)C1
6.50	CCOC(=O)C1CCN(C(=O)CCCN2CCN(c3csc4cc(F)ccc34)CC2Cc2ccccc2)CC1 (stereo not shown)
